This is an account of results in patent US20170189376A1, “BUTYROYLOXYMETHYL DIETHYL PHOSPHATE COMPOUNDS AND USES THEREOF” (MOR RESEARCH APPLICATIONS LTD., priority 2016, published 2017).

In assay [1] the test system is MyLa cells. The assay is classed as cell-based, human.
The subject of assay [2] is Hut78 cells. Format: cell-based, homo sapiens.
Assay [3] concerns MyLa cells. The experiment in a line: MTT-based viability assay, MyLa cells.
The test system of assay [4] is Hut78 cells. The experiment in a line: MTT-based viability assay, Hut78 cells.
Assay [5] relates to Sezary syndrome Peripheral blood lymphocytes SPBL. The assay can be described thus: MTT-based viability assay, Sezary PBL (SPBL).
Assay [6] has as its system MyLa cells. The assay can be described thus: FACS analysis with annexin V and PI staining (apoptosis), MyLa cells.
Assay [7] deals with Hut78 cells. The assay can be described thus: FACS analysis with annexin V and PI staining (apoptosis), Hut78 cells.

`O=C(CCCCCCC(=O)Nc1ccccc1)NO` [SAHA, Suberoylanilide hydroxamic acid]: the “IC50 short exposure/IC50 long exposure” value in the assay on MyLa cells [1] came out at 14.3; with Hut78 cells [2] it was 17.1. Moreover, the “selectivity vs NPBL by dose-response titration” value in the assay with MyLa cells [3] (MyLa vs NPBL, ANOVA with repeated measures) is recorded as “significantly nonselective”; in the assay with Hut78 cells [4] (Hut78 vs NPBL, ANOVA with repeated measures), “significantly selective”. The “Selectivity index (SI)” value in the assay on MyLa cells [3] (SI=IC50 NPBL/IC50 MyLa) was 0.5; in the assay on Hut78 cells [4] (SI=IC50 NPBL/IC50 Hut78) it was 3; in assay [5] (SI=IC50 NPBL/IC50 Sezary PBL) it was 1.21. Also, the “selectivity of induced death vs NPBL” value in assay [5] (SPBL vs NPBL, by IC50 values) is recorded as “nonselective death”. Also, the “apoptosis after short exposure compared to long exposure (fold less)” value amounted to 2.75 fold in the assay with MyLa cells [6] and 2.5 fold in the assay with Hut78 cells [7].
